Assay results as given in patent US20120283274A1, “CRYSTALLINE FORMS OF SUBSTITUTED PYRAZOLOPYRIMIDINES” (priority 2009, published 2012).
Where two headings read alike, the source gives them in different places.

Columns and labels:
[1] = Determination of aqueous solubility (HPLC); details: 23° C.; for pH of the filtrate: filtrate of the aqueous suspension after 24 hours; for Solubility: suspended in water, 24 hours, concentration of the free base by HPLC
[2] = pH 8.5
[3] = DVS (dynamic vapour sorption), hygroscopicity; type: physicochemical; details: with hysteresis
Procedure: DVS (50%->0%->95%->50% r.h.) was performed on the samples as mentioned above. The results are summarized in the following:
Surface Measurement Systems Ltd. DVS-1 water vapour sorption analyzer and Projekt Messtechnik SPS 11-100n multi-sample water vapor sorption analyzer were used.
The sample was allowed to equilibrate at 50% relative humidity (r.h.) before starting e.g. the following predefined humidity program: • 2 h at 0% r.h. • 0 to 95% r.h. (5%/h) • 3 h at 95% r.h. • 95 to 0% (10%/h) • 2 h at 0% r.h.

| pH of the filtrate [1] | Solubility [2] | solid form after solubility test (FT-Raman compared with the spectrum before) ([1]; solid after 24 hours in water) | Solubility [1] | relative humidity above which reversible water uptake occurs [3] | Compound |
| --- | --- | --- | --- | --- | --- |
| 3.0 | 30 µg/mL |  |  |  | C[C@@H]1c2ccccc2CCN1C(=O)c1cc2ncc(Br)cn2n1.O=C(O)c1cc(O)ccc1O [Example 3c, co-crystal of (6-bromo-pyrazolo[1,5-a]pyrimidin-2-yl)-(1(R)-methyl-3,4-dihydro-1H-isoquinolin-2-yl)-methanone and gentisic acid] |
| 5.2 |  | no change in form | 40 µg/mL | above 80 % r.h. | C[C@@H]1c2ccccc2CCN1C(=O)c1cc2ncc(Br)cn2n1.O=C(O)c1ccc2ccccc2c1O [Example 4c, co-crystal of (6-bromo-pyrazolo[1,5-a]pyrimidin-2-yl)-(1(R)-methyl-3,4-dihydro-1H-isoquinolin-2-yl)-methanone and xinafoic acid] |
| 8.5 |  |  | below 0.01 mg/ml |  | C[C@@H]1c2ccccc2CCN1C(=O)c1cc2ncc(Br)cn2n1 [Free drug compound, (6-bromo-pyrazolo[1,5-a]pyrimidin-2-yl)-(1(R)-methyl-3,4-dihydro-1H-isoquinolin-2-yl)-methanone] |
